# Ab-14 heavy chain CDR variants: yeast mating affinities

From the AlphaSeq antibody data of Li et al. 2023 (doi:10.1038/s41467-023-39022-2), copy in the FLAb collection.

Target peptide (SARS-CoV-2 spike, HR2 region): PDVDLGDISGINAS

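Phage display of a naive human antibody library on the peptide gave the parent. These sequences belong to a second round, designed from the earlier measurements on random variants of the parent. Group labels follow the data file (Ctrl: baseline library sampled from a position-specific scoring matrix, with some repeated check sequences; Rand: our label for a block that the file lists under HC and that is probably the random mutants of the ten best first-round binders; En: ensemble of fine-tuned language models; GP: Gaussian process model; GPLM: also part of the Gaussian process libraries; HC: hill climbing; Gen: genetic algorithm; Gibbs: Gibbs sampling; a sequence that several methods proposed may carry one label only). The scFvs were displayed on barcoded MATa yeast, the peptide on MATalpha yeast. Mating (16 h, 30 °C) was followed by selection of diploids and sequencing of their barcodes. A regression on co-assayed BCL2-family reference pairs converts the normalised counts of each replicate to an apparent Kd. There are six technical replicates.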

Each scFv is VH, three GGGGS repeats, VL, as in the parent Ab-14, and differs from it in the CDRs of the heavy chain only.
VH: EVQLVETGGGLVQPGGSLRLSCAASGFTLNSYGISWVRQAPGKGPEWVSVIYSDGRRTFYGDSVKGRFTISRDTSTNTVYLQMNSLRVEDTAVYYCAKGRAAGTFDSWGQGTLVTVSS
VL: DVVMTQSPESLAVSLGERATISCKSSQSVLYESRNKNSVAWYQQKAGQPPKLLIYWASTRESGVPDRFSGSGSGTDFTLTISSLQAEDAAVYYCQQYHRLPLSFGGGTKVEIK

Each variant is given by its three heavy chain CDRs, as the data file delimits them; those of the parent are GFTLNSYGIS, VIYSDGRRTFYGDSVK, GRAAGTFDS. Variants here have at most six changes. Numbers give log10(Kd / nM), so 0 is 1 nM and 3 is 1 µM. Smaller is tighter. The mean shown is taken over the replicates in which the pair was detected. "nd" means that the variant was in the library but no mating with the target was seen in that replicate; the authors take this as a sign of poor binding, and no number exists. Order: sorted from the lowest average up, undetected variants last. Of ten entries with the parent sequence, four were seen in most replicates (averages 0.34 to 2.37), three in one and three in none, so single entries are noisy. Values of this round are not directly comparable with the first-round values of the same sequences. A sequence that the file lists under several names has all its replicates listed entry by entry, parted by semicolons. The authors averaged sequences with at least three values out of six and counted those with two or fewer as poor binders. Nonspecific signal, from three strains lacking the peptide, appeared in 1% of pairings of all heavy chain designs, centred on 2.08 (5% of these signals below 0.84); values are not corrected for it.

The variant GFSLNEYGIS / VIYSDGRRTFYGDSVK / GQAAGTFDF [GPLM_Gen] gave nd, nd, nd, -1.66, -1.56, -1.85 (mean -1.69).
The variant GFTLNSYGIS / VIYSDGKRTFYDDSVK / GLLAGTFDS [GP_HC] gave nd, -0.72, nd, nd, nd, nd.
The variant GFNLNEYGIS / VIYADGQRTFYADSVK / GEAAGTFDS [En_HC] gave -0.75, -0.81, -0.57, -0.72, -0.64, -0.41 (mean -0.65).
The variant GFDLNEYGIS / VIYSDGRRTMYGDSVK / GRTAGTFDS [GP_Gen] gave -0.28, -0.41, -1.36, -0.12, -0.36, -0.87 (mean -0.57).
The variant GFTLNSLSIS / VIYSDGRRTFYGDSVK / GHTAGTFDS [Ctrl] gave -0.13, -0.50, -0.16, -0.24, -0.15, -0.32 (mean -0.25).
The variant GFDLNEYGIS / VIYSDGRRTFYDDSVK / GRAAGTFDS [GP_Gen] gave 0.14, -0.51, 0.27, -0.01, -0.26, -0.60 (mean -0.16).
The variant GFTLNEYGIS / VIYSDGRRTFYSDSVK / GQAAGTFDN [GP_HC] gave 0.02, -0.05, -0.50, 0.30, -0.09, 0.40 (mean 0.01).
The variant GFDLNSYGIS / VIYSDGRRTYYGDSVK / GRTAGTFDS [GPLM_Gibbs] gave 0.94, 0.17, -0.28, -0.26, 0.48, 0.06 (mean 0.19).
The variant GFSLNSYGIS / VIYSDGQRTFYKDSVK / GRTAGTFDS [GPLM_Gibbs] gave 0.24, 0.05, 0.07, 0.24, 0.15, 0.57 (mean 0.22).
The variant GFALNSYGIS / VIYSDGRRTFYSDSVK / GQLAGTFDS [GP_HC] gave 0.22, 0.46, -0.03, 0.59, 0.45, 0.11 (mean 0.30).
The variant GFSLNSYGIS / VIYSDGRRTFYVDSVK / GNAAGTFDL [GP_Gibbs] gave 0.31, 0.26, 0.08, 1.21, -0.12, 0.51 (mean 0.37).
The variant GFSLNEYGIS / VIYSDGRRTFYADWVK / GRTAGTFDS [GPLM_Gen] gave 0.51, -0.01, 0.09, 0.44, 0.75, 0.64 (mean 0.40).
The variant GFSLNSYGIS / VIYSDGRRTFYRDSVK / GQTAGTFDS [GPLM_Gen] gave 0.59, 0.52, 0.24, 0.41, 0.80, 0.46 (mean 0.50).
The variant GFTLNEYGIS / VIYSDGRRTFYGDSVK / GCIAGTFDN [GP_HC] gave 0.94, 0.55, nd, 0.33, 0.82, 0.16 (mean 0.56).
The variant GFELNSYGIS / VIYSDGRRTFYVDSVK / GKEAGTFDS [GP_Gibbs] gave 0.65, 0.53, 0.83, 0.42, 0.26, 0.81 (mean 0.59).
The variant GFELNSYGIS / VIYSDGRRTFYDDDVK / GRTAGTFDS [GP_Gibbs] gave 1.27, 0.15, 0.81, 0.85, -0.11, 0.65 (mean 0.61).
The variant GFTLNSYGIS / VIYSDGQRTFYADDVK / GQAAGTFDK [GP_Gibbs] gave 1.08, 1.13, -0.08, -0.05, 0.64, 0.98 (mean 0.62).
The variant WFDLNSYGIS / VIYSDGRRTFYGDSVK / GRTAGTFDS [GP_Gen] gave 1.10, 0.47, 0.38, 0.67, 0.75, 0.49 (mean 0.64).
The variant GFTLNSYGIS / VIYSDGRRTFYTDSVK / GKVAGTFDS [GPLM_Gibbs] gave 0.69, 0.76, 0.12, 1.39, 0.04, 1.38 (mean 0.73).
The variant GFSLNSYGIS / VIYSDGRRTFYGDHVK / GEAAGTFDS [GPLM_Gen] gave nd, 0.81, 0.37, 0.72, 0.85, 1.22 (mean 0.79).
The variant GFTLNSYGIS / VIYSDGRRTFYADDVK / GRAAGTFDS [GP_Gibbs] gave 0.98, 1.78, nd, nd, nd, 0.38 (mean 1.05).
The variant GFTLNSYGIS / VIYSDGRRTFYGDSVK / GKVAGTFDS [Ctrl+GPLM_Gen] gave 1.03, nd, 1.46, nd, 1.11, 2.21; nd, nd, 0.30, nd, nd, nd (mean 1.22).
The variant GFTLDSYGIS / VIYSDGRRTFYGDSVK / GRAAGTFDY [Ctrl] gave 1.72, 1.96, 0.84, 1.87, 1.13, 1.10 (mean 1.44).
The variant RFTLNSYGIS / VIYSDGRRTFYGDSVK / GGAAATFDS [Ctrl] gave 1.14, 2.24, nd, 1.42, nd, 1.55 (mean 1.59).
The variant LFDLNSYGIS / VIYSDGRRTFYIDSVK / GQEAGTFDS [GP_Gibbs] gave nd, nd, nd, nd, nd, 1.70.
The variant GFTLNSYGIS / VIYSDGRRTSYGDSVK / GELAGTFDS [Ctrl] gave 1.30, 1.26, nd, 2.02, 0.90, 3.01 (mean 1.70).
The variant GNTLNEYGIS / VIYSDGRRTFYTDSVK / GRWAGTFDS [GP_HC] gave 1.50, 3.05, 1.01, 2.29, 2.51, 1.14 (mean 1.92).
The variant GFTLNEYGIS / VIYSDGRRTFYGDSVK / GRAAVTFDS [Ctrl+GPLM_HC] gave nd, nd, nd, nd, nd, nd; nd, 2.59, nd, nd, nd, nd.
The variant KFQLNDYGIS / VIYSDGRRTFYGDSVK / GRQAGTFDS [GP_Gibbs] gave nd, 2.68, 2.37, nd, 2.88, nd (mean 2.65).
The variant GFTLNSYGIS / VIYSDGRRTFYGDSVK / GRLAGVFDS [Ctrl] gave nd, nd, nd, nd, nd, nd.
The variant GFTLNSYGIS / VIYSDGRRTFYGDAVK / GREAGWFDL [Ctrl] gave nd, nd, nd, nd, nd, nd.
The variant GTTLNLYGIS / VIYSDGRRTFYGDSVK / LQGAGTFDS [Ctrl] gave nd, nd, nd, nd, nd, nd.
The variant GFTLDSYGIS / VIYSCGRRTFYGDSVK / GRAAGTALN [Rand] gave nd, nd, nd, nd, nd, nd.
The variant GFTLNDYGIS / VIYSDGRRCFYGDSVK / GRAALTKIS [Rand] gave nd, nd, nd, nd, nd, nd.
The variant GFTLNSYGIS / VIYSDGRRTFYGDSVK / GRAAGTFIS [Ctrl] gave nd, nd, nd, nd, nd, nd.
The variant GFALNSYGIS / VIYSDGRRTFYGDSVK / GRCAGTFHT [Ctrl] gave nd, nd, nd, nd, nd, nd.
The variant GFTLNEYGIS / VDYSDGRRTAYGDSVK / GDMAGTFDS [Ctrl] gave nd, nd, nd, nd, nd, nd.
The variant GFTLNWYGIS / VIYSDGRRTFYGDSVK / GRAAVTFDQ [Rand] gave nd, nd, nd, nd, nd, nd.
The variant GFTLNSYGIS / VIYSDGRRTFYGLSVK / GREAGTFDS [Ctrl] gave nd, nd, nd, nd, nd, nd.
The variant GFTLDDYGIS / VIYSDGRRTFYGDSVK / GRCAGCFDS [Ctrl] gave nd, nd, nd, nd, nd, nd.
The variant GFTLNSYGIQ / VIYSDGRRTFYIDSVK / GQAAGTFDS [Ctrl] gave nd, nd, nd, nd, nd, nd.
The variant GFQLNSYGIS / VIYADGRRTFYGDSVK / GRAADTNDS [GP_HC] gave nd, nd, nd, nd, nd, nd.
The variant GFDLNSYGIS / VIYSDGRRTFYVDSVK / GRQAGTFDA [GPLM_Gibbs] gave nd, nd, nd, nd, nd, nd.

Excerpt, the final 6 entries:

With GFTLNWYGIS / VIYSDGRRTFYGDSVK / GRAAVTFDQ [Rand] the result was nd, nd, nd, nd, nd, nd.
With GFTLNSYGIS / VIYSDGRRTFYGLSVK / GREAGTFDS [Ctrl] the result was nd, nd, nd, nd, nd, nd.
With GFTLDDYGIS / VIYSDGRRTFYGDSVK / GRCAGCFDS [Ctrl] the result was nd, nd, nd, nd, nd, nd.
With GFTLNSYGIQ / VIYSDGRRTFYIDSVK / GQAAGTFDS [Ctrl] the result was nd, nd, nd, nd, nd, nd.
With GFQLNSYGIS / VIYADGRRTFYGDSVK / GRAADTNDS [GP_HC] the result was nd, nd, nd, nd, nd, nd.
With GFDLNSYGIS / VIYSDGRRTFYVDSVK / GRQAGTFDA [GPLM_Gibbs] the result was nd, nd, nd, nd, nd, nd.